An excerpt weighted towards active compounds, which were near 16% of everything screened.
DT40 TDP1 CPT: growth inhibition of DT40 Tdp1-/-;hTDP1 cells with camptothecin (screen for TDP1 inhibitors) | 420,000 compounds, 12% hits | chicken DT40 Tdp1-/-;hTDP1 cells + 20 nM CPT, ATP luminescence, 48 h | AID 686979 | Potency, µM (highest dose often 46.2 µM), without a hit: at the highest dose activity change, negative = growth inhibition, most hits filed as inhibitors; note: potency is the fitted concentration of half-maximal effect; % is set by controls: 0 for no effect and ±100 for the full control effect; nearly all actives have a fitted effect of over 55% in size
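Chicken DT40 Tdp1-/- cells stably complemented with human TDP1 were seeded at 400 cells/well in medium containing 20 nM camptothecin, exposed to pin-transferred compounds, and grown at 37 °C for at least 48 hr. Viability was read as ATP luminescence.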
uPA surface inh: inhibitors of cell surface uPA generation | cell surface uPA generation assay, qHTS | Potency, µM (highest dose often 38.3 µM), inactives show at the top dose activity change, negative = inhibition, hits mostly inhibitors | 330,000 compounds, 0.31% hits | AID 540303; active = well fitted inhibition curve with a large enough effect; inconclusive = small, poorly fitted or top-dose-only effect; inactive = no such curve, though single readings can be large or run the other way; tested in mouse RAW 264.7 cells; note: potency is the fitted concentration of half-maximal effect; % is set by controls: 0 for no effect and ±100 for the full control effect; nearly all actives have a fitted effect of over 55% in size
DT40 TDP1 no CPT: qHTS for Inhibitors of human tyrosyl-DNA phosphodiesterase 1 (TDP1): qHTS in cells in absence of CPT; DT40 Tdp1-/- hTDP1 cells, no CPT, ATP luminescence, 48 h; Potency, µM (doses to about 46.2 µM), inactives show at the highest dose activity change, negative = growth inhibition, most hits filed as inhibitors; 420,000 compounds, 15% hits; AID 686978, 2013; note: potency is the fitted concentration of half-maximal effect; % is set by controls: 0 for no effect and ±100 for the full control effect; nearly all actives have a fitted effect of over 55% in size
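Growth kinetics read by CellTiter-Glo luminescence after ≥48 hr at 37 °C. Cells: DT40 Tdp1-/- stably carrying human TDP1, 400 per well, compound exposure in the absence of CPT (DMSO vehicle).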
TDP1 inh: TDP1 (human) enzyme inhibition; 350,000 compounds, 0.28% hits; Potency, µM (top dose mostly 130 µM), for the others: at the highest dose activity change, negative = inhibition, usual class: inhibitors; recombinant TDP1, AlphaScreen DNA substrate cleavage; note: potency is the fitted concentration of half-maximal effect; % is set by controls: 0 for no effect and ±100 for the full control effect; nearly all actives have a fitted effect of over 40% in size
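Recombinant human Tdp1 (E. coli-expressed, 1 nM final) preincubated with compounds 15 min at room temperature, then 5'-biotin/3'-phosphotyrosine-FITC DNA substrate (15 nM final) added for 5 min. AlphaScreen beads (10 ug/ml final) added 10 min; cleavage lowers signal.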
miR-21 reporter: raises the signal of a miR-21 reporter | HeLa miR-21 FLuc reporter, luciferase, 48 h | Potency, µM (doses to about 38.3 µM), for the others: at the highest dose reporter change, positive = more light | 340,000 tested, under 10 active | AID 2288; active = well fitted rising curve with a large enough effect; inconclusive = small, poorly fitted or top-dose-only effect; inactive = no such curve, though single readings can be large or run the other way;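 also: % of control where 0% means no effect; miR-21 action dims this reporter so a rising signal means less miR-21 action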
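HeLa cells endogenously expressing miR-21, stably carrying CMV-driven firefly luciferase with a downstream miR-21 binding site, 2000 cells/well. Titrations up to approximately 40 uM, 48 hours; luciferase luminescence read.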
Numbers without * were called inactive; ? = inconclusive; / = no result. Unless noted, calls come from the whole dose curve; as a rule, active = well fitted curve in the direction sought with a large enough effect; inconclusive = small, poorly fitted or top-dose-only effect, or another doubt; inactive = no such curve, though single readings can be large; an effect the other way counts as inactive or inconclusive.

#	structure	miR-21 reporter	uPA surface inh	DT40 TDP1 no CPT	TDP1 inh	DT40 TDP1 CPT
1	COc1c(-c2coc3cc4c(cc3c2=O)CC(O)C(C)(C)O4)ccc2c1C=CC(C)(C)O2 (configuration not stated)	/	/	0.021µM*	9%	0.046µM*
2	Cc1c(Nc2nc3ccccc3n3c(C)nnc23)cccc1C(=O)O	-7%	/	-7%	0%	-6%
3	COc1ccc(C2(CNC(=O)Cc3ccccc3)CCCC2)cc1OC	-9%	-3%	13µM*	0%	?
4	COc1ccc(C2(CNC(=O)C(=O)Nc3cccc(C(F)(F)F)c3)CCCC2)cc1OC	3%	/	18µM*	2%	21µM*
5	COc1ccc(/C(N)=N/OC(=O)c2cccc([N+](=O)[O-])c2)cc1OC	0%	-1%	-29%	2%	-26%
6	COc1ccc(CC(=O)NCC2(c3ccc(OC)c(OC)c3)CCOCC2)cc1	-6%	1%	-3%	4%	-2%
7	COc1ccc(/C(N)=N/OC(=O)c2ccc(OC)c([N+](=O)[O-])c2)cc1OC	-1%	-18%	12µM*	3%	?
8	COc1ccc(C2(CNC(=O)c3ccc(OC)c([N+](=O)[O-])c3)CCCCC2)cc1OC	-5%	-3%	21µM*	5%	?
9	Cc1cccc(OCCC(=O)NNC(=O)Cn2nc(C)cc2C)c1	/	2%	9%	0%	19%
10	COc1ccccc1-c1cc(C(=O)Nc2ccccc2C(F)(F)F)no1	-16%	/	-26%	-1%	?
11	Nc1ccc(S(=O)(=O)Nc2cnc3c(Cl)cccc3n2)cc1	/	1%	-23%	/	?
12	COc1ccccc1CNc1nc2ccccc2n1CCN1CCCCC1	1%	3%	?	6%	?
13	CCN(CC(=O)N1CCCC1)S(=O)(=O)c1ccccc1	-6%	?	-8%	/	-13%
14	COc1ccc(C2(CNC(=O)c3cccc([N+](=O)[O-])c3)CCCCC2)cc1OC	4%	1%	10µM*	3%	16µM*
15	CCC(c1nnnn1CCc1ccccc1)N(Cc1ccco1)Cc1cc2cc(C)cc(C)c2[nH]c1=O (configuration not stated)	0%	-10%	23µM*	5%	18µM*
16	CCC(c1nnnn1Cc1ccccc1)N(Cc1ccco1)Cc1cc2cc(OC)ccc2[nH]c1=O (configuration not stated)	-19%	-1%	21µM*	7%	16µM*
17	CCCC(c1nnnn1C(C)(C)CC)N(Cc1ccco1)Cc1cc2ccc(OC)cc2[nH]c1=O (configuration not stated)	-1%	-8%	?	5%	?
18	CCC(c1nnnn1CCOC)N(Cc1ccc(C)cc1)Cc1cc2cc(OC)ccc2[nH]c1=O (configuration not stated)	-8%	-2%	7.3µM*	?	?
19	CCC(c1nnnn1Cc1ccco1)N(CCc1ccccc1)Cc1cc2cc(C)ccc2[nH]c1=O (configuration not stated)	-3%	-3%	?	7%	21µM*
20	COc1ccc(S(=O)(=O)N2CCN(C(=O)CSC(=S)N3CCCC3)CC2)cc1	/	-4%	?	0%	-11%
21	Cc1cccc2sc(N(CCCN3CCOCC3)C(=O)CS(=O)(=O)c3ccc(F)cc3)nc12	/	-4%	-23%	-5%	1%
22	O=C(NCc1ccco1)C(c1ccco1)N(Cc1cccs1)C(=O)Cn1nnc2ccccc21 (configuration not stated)	-2%	3%	?	8%	?
23	COc1cc(C(C)=O)ccc1OCC(=O)NC(=O)Nc1ccc(C)cc1C	/	-1%	9%	0%	-7%
24	Cc1ccc2[nH]c(=O)c(CN(CCc3ccccc3)C(c3nnnn3Cc3ccco3)C(C)C)cc2c1 (configuration not stated)	-1%	5%	23µM*	1%	29µM*

Compound profiles, as listed above.
O=C(NCc1ccco1)C(c1ccco1)N(Cc1cccs1)C(=O)Cn1nnc2ccccc21 (configuration not stated) as listed: miR-21 reporter = -2%; uPA surface inh = 3%; DT40 TDP1 no CPT = ?; TDP1 inh = 8%; DT40 TDP1 CPT = ?
COc1ccc(S(=O)(=O)N2CCN(C(=O)CSC(=S)N3CCCC3)CC2)cc1 as listed: miR-21 reporter = /; uPA surface inh = -4%; DT40 TDP1 no CPT = ?; TDP1 inh = 0%; DT40 TDP1 CPT = -11%

(cont.)
#	structure	miR-21 reporter	uPA surface inh	DT40 TDP1 no CPT	TDP1 inh	DT40 TDP1 CPT
25	Cc1ccc2[nH]c(=O)c(CN(CCCO)Cc3nnnn3Cc3ccco3)cc2c1	/	/	?	2%	?
26	CCOC(=O)c1cc2cc([N+](=O)[O-])ccc2oc1=O	-7%	2%	1%	4%	0%
27	O=[N+]([O-])c1ccc2oc(C(O)c3cccc(Cl)c3)cc2c1 (configuration not stated)	0%	-1%	12µM*	/	?
28	O=C(C1CC1)N1CCc2cc(Br)cc(S(=O)(=O)NCc3ccc4c(c3)OCO4)c21	1%	-4%	3%	4%	9%
29	O=C(OCC(=O)N1CCOCC1)c1ccc(O)cc1	-10%	0%	9%	/	17%
30	Cc1ccccc1Cn1c(CN2CCC(C(=O)NCCN(C)C)CC2)cc2ccccc21	-1%	/	4.1µM*	9%	3.3µM*
31	Cc1ccccc1Cn1c(CN2CCC(C(=O)NCc3ccc(Cl)cc3)CC2)cc2ccccc21	4%	/	?	4%	?
32	CCOc1ccc(CNC(=O)C2CCN(Cc3cc4ccccc4n3Cc3ccccc3C)CC2)cc1	18%	/	23µM*	2%	13µM*

Brought forward from above: two compounds, then new ones.
#	structure	miR-21 reporter	uPA surface inh	DT40 TDP1 no CPT	TDP1 inh	DT40 TDP1 CPT
31	Cc1ccccc1Cn1c(CN2CCC(C(=O)NCc3ccc(Cl)cc3)CC2)cc2ccccc21	4%	/	?	4%	?
32	CCOc1ccc(CNC(=O)C2CCN(Cc3cc4ccccc4n3Cc3ccccc3C)CC2)cc1	18%	/	23µM*	2%	13µM*
33	COc1cccc(CNC(=O)C2CCN(Cc3cc4ccccc4n3Cc3ccc(C)cc3)CC2)c1	19%	/	21µM*	5%	?
34	CCOc1cc2[nH]c(=O)n(CC3CCC(C(=O)NCCC(C)C)CC3)c(=O)c2cc1OCC (configuration not stated)	/	8%	-28%	/	-12%
35	Cc1cc(Br)ccc1NC(=O)c1cc2c(s1)-c1ccccc1SC2	17%	/	?	-5%	?
36	Cn1nc(-c2ccc(OCC(=O)Nc3cccnc3)cc2)c2ccccc2c1=O	14%	-4%	?	3%	?
37	CCOC(=O)c1c(C)[nH]c(C)c1S(=O)(=O)NCCN1CCN(c2cc(Cl)ccc2C)CC1	21%	-4%	13µM*	8%	?
38	CCOc1ccc(NC(=O)NCCN2CCN(c3cc(Cl)ccc3C)CC2)cc1	21%	/	?	8%	21µM*
39	CCOC(=O)c1c(C)[nH]c(C)c1S(=O)(=O)N1CCN(c2cc(Cl)ccc2C)CC1	6%	/	?	8%	?
40	Cc1ccc(Cl)cc1N1CCN(CCNC(=O)Nc2ccc(Cl)cc2)CC1	?	/	?	0%	12µM*
41	CCC(=O)N1c2ccccc2CC1C(=O)NCCCN1CCN(c2ccc(OC)cc2)CC1 (configuration not stated)	-3%	/	?	4%	?
42	CCC(=O)N1c2ccccc2CC1C(=O)NCCN1CCN(c2cc(Cl)ccc2C)CC1 (configuration not stated)	12%	/	?	9%	21µM*
43	CCCCn1c(N)c(N(C)C(=O)c2cc3c(s2)CCCCC3)c(=O)[nH]c1=O	/	10%	8%	1%	-1%
